Literature values, collected in US20220331309A1, “PHARMACEUTICAL COMPOSITION FOR TREATING INSOMNIA” (priority 2019, published 2022).

Tested on: CYP3A
Conditions: FDA guidance classification; cited from earlier work

SMILES: CNCCC(Oc1ccc(C(F)(F)F)cc1)c1ccccc1 (stereo not shown) [Fluoxetine, fluoxetine]
- Classification of CYP3A inhibiting action of drug used in combination: Weak (increases the AUC of CYP3A in the metabolism of a substrate 1.25-fold or more and less than twofold)
